{"source": "patent US4769483A", "about": "“Cycloalkyl-substituted 4-aminophenyl derivatives and process for their preparation” (Farmitalia Carlo Erba, S.p.A., priority 1985, dated 1988)", "origin": "cited, not measured here", "tested_on": "aromatase", "settings": "literature reports; cited from earlier work"}
{"smiles": "CCC1(c2ccc(N)cc2)CCC(=O)NC1=O", "note": "(stereo not shown) [Aminoglutethimide, aminoglutethimide]", "values": [{"measurement": "aromatase-inhibiting action (in words)", "value": "more or less selective aromatase-inhibiting action"}]}
